{
  "sequences": {"note": "Amino acid sequences for entries named in this document (tags omitted). A change or cut given only in a name is not applied to a line headed by its entry.", "UniProt Q9Y233": "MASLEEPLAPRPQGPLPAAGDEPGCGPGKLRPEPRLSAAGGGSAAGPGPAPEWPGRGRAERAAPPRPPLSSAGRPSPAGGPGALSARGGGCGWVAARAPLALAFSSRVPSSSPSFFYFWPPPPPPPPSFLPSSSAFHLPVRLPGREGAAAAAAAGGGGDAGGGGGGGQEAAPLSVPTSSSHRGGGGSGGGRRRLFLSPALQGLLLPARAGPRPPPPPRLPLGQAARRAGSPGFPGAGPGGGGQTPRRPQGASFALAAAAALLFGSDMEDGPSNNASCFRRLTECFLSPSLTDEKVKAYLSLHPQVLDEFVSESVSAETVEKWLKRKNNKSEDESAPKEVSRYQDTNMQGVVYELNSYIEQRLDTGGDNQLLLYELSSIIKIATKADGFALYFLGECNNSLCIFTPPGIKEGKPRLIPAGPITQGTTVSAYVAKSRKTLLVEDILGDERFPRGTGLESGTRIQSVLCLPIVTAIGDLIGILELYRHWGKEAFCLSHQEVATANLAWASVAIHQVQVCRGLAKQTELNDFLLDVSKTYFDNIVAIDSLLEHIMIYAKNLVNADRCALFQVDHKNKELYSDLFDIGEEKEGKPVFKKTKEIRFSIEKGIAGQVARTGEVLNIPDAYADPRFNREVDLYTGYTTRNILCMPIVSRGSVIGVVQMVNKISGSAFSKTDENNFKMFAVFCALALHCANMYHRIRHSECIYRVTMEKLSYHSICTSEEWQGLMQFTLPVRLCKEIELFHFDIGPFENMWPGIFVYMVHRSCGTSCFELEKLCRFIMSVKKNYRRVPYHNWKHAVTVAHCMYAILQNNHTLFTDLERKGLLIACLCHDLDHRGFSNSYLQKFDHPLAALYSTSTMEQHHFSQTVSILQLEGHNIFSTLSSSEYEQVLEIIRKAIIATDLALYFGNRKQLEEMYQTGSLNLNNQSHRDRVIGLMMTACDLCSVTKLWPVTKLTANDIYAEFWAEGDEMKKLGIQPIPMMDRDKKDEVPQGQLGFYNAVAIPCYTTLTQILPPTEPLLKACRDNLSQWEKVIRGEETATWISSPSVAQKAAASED"},
  "source": "ChEMBL document CHEMBL1155487",
  "about": "“Discovery of imidazo[1,5-a]pyrido[3,2-e]pyrazines as a new class of phosphodiesterase 10A inhibitiors” (J Med Chem, 2010)",
  "biological_target": "cAMP and cAMP-inhibited cGMP 3',5'-cyclic phosphodiesterase 10A (Homo sapiens, UniProt Q9Y233)",
  "test": "Inhibition of human recombinant PDE10A expressed in baculovirus-SF21 cell system assessed as hydrolysis of [3H]cAMP after 1 hr by liquid scintillation counting",
  "outline": "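Human recombinant PDE10A expressed in baculovirus-infected Sf21 cells; cytosolic supernatant taken after sonication and 48000g spin. Assay in 50 mM Tris-HCl/5 mM MgCl2, pH 7.4, with 0.1 μM [3H]cAMP at 37 °C for 30 min. Stopped with Ysi-SPA beads and counted by scintillation 1 h later. Nonspecific activity measured without enzyme.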",
  "note": "“And” between values parts separate entries of the source, which are not always exact repeats. Equal values may be shown once.",
  "data": [
    {"smiles": "COc1ccc(Cc2nccc3cc(OC)c(OC)cc23)cc1OC", "note": "[PAPAVERINE]", "values": [
      {"measurement": "IC50", "value": "56.9 nM and 76 nM"}
    ]}
  ]
}
